Assay results taken from PubChem BioAssay (NCATS).
Values joined by “and” are separate entries in the source; they are usually repeats but may differ in a detail not shown here. Identical values can stand only once. This is a selection; strong and weak results do not stand in their true shares. Records with an inconclusive call do not appear. Active and inactive are the calls of the source. Unless noted, calls follow the shape of the dose curve; as a rule, active = well fitted curve in the direction sought with a large enough effect; inconclusive = small, poorly fitted or top-dose-only effect, or another doubt; inactive = no such curve, though single readings can be large; an effect the other way counts as inactive or inconclusive.

Sequences of proteins named here, by UniProt entry; tags and fusion partners are left off. A change or cut given only in a name is not applied to a line headed by its entry.
UniProt Q13526, whole entry, looked up: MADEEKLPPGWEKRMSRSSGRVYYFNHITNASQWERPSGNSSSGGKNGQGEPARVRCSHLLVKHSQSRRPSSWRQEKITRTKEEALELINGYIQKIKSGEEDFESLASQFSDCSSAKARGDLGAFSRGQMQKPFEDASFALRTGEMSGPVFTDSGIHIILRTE
UniProt O94782: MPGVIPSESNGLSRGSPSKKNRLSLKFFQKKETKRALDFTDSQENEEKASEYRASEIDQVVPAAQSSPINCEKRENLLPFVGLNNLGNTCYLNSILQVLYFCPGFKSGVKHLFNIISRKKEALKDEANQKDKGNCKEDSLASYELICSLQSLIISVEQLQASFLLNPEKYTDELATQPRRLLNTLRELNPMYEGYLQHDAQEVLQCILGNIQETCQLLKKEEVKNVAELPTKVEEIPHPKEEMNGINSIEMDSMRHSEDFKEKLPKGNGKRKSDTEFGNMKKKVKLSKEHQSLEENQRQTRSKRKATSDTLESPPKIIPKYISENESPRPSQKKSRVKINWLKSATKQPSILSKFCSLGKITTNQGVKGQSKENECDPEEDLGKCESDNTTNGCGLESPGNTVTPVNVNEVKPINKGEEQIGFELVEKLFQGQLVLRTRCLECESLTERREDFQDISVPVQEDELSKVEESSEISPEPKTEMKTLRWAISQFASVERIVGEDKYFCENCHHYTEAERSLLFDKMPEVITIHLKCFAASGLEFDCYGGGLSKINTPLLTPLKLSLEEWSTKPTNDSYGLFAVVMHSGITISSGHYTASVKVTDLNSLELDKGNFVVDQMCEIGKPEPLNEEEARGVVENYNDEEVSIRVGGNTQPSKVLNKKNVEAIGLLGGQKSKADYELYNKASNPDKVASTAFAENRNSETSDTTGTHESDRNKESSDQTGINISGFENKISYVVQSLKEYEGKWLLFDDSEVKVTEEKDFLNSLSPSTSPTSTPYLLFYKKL
UniProt O94925: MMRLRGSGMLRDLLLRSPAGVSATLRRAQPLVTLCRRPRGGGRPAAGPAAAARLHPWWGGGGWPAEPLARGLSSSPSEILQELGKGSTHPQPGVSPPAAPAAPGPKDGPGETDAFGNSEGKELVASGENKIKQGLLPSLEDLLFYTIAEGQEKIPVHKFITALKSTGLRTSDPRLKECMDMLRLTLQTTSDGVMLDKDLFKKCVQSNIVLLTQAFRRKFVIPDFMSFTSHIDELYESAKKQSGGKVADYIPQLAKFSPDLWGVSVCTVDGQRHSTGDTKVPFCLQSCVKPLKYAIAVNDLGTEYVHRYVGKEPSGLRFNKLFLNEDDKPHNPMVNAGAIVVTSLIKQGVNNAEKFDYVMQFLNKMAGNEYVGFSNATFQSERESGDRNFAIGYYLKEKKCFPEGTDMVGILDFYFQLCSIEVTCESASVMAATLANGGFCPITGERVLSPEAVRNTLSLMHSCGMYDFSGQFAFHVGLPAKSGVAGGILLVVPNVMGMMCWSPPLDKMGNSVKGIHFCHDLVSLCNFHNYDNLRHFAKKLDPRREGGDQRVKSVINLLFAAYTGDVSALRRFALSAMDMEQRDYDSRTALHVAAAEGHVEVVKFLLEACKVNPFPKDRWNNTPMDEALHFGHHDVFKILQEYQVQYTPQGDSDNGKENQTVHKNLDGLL
UniProt P43220, whole entry, looked up: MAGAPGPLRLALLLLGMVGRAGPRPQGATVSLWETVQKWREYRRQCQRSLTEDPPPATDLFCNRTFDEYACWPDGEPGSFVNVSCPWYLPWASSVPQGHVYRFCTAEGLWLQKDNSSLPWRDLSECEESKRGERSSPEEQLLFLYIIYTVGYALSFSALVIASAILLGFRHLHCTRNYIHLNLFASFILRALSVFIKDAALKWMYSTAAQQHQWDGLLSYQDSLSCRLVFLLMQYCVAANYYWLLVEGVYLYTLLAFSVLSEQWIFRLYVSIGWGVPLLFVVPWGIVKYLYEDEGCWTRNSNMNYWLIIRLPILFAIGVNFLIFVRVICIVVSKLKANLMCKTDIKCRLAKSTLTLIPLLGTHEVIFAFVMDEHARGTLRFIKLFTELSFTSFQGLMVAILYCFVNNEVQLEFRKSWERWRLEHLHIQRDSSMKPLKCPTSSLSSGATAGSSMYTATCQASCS
UniProt P15289: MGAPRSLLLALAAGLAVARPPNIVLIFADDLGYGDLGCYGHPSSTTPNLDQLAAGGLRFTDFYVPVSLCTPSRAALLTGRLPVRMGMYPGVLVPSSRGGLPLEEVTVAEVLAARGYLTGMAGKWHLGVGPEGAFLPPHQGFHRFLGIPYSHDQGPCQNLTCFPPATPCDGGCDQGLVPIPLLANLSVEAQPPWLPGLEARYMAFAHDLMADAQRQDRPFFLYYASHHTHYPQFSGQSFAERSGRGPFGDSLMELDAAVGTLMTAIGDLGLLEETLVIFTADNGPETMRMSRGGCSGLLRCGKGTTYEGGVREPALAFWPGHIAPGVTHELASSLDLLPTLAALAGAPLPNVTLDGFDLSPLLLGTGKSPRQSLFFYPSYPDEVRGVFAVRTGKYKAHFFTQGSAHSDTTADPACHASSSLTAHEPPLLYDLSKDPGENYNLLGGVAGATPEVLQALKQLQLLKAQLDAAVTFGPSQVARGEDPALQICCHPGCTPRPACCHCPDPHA
UniProt P35557, whole entry, looked up: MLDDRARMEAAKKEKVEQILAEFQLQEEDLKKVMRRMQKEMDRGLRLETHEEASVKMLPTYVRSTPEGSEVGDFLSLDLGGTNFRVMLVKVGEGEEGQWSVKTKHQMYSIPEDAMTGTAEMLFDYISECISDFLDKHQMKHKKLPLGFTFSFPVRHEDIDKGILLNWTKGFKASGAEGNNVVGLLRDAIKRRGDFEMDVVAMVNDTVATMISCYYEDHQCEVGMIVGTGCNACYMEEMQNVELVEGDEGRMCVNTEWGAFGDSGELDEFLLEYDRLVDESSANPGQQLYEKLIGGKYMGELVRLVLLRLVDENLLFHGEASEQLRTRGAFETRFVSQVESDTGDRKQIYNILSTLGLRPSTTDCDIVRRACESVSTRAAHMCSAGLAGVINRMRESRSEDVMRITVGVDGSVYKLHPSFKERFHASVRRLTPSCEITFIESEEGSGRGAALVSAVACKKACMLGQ
UniProt Q14397: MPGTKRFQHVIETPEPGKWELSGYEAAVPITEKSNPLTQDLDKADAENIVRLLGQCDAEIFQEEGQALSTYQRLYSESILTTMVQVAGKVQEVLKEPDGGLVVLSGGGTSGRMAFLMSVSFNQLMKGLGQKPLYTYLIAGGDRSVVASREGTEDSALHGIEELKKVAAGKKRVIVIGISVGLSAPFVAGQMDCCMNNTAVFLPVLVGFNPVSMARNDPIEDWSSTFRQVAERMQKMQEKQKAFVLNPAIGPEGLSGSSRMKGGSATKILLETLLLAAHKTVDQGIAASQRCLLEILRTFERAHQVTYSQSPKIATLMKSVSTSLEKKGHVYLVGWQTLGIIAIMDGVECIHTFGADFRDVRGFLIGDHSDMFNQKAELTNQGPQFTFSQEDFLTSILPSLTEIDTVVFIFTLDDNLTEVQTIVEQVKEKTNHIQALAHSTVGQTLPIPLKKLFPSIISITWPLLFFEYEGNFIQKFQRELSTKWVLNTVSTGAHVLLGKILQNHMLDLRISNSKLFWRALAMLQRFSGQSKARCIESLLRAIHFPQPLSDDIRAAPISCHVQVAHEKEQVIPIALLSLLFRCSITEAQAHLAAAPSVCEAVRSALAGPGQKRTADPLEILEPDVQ

Key:
[1] = Validation screen for small molecules that induce DNA re-replication in SW480 colon adenocarcinoma cells (AID 504364); settings: DNA re-replication phenotype (high-content imaging); at 46.1 µM (top of the series); also: 0% is about no effect
Outline: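 SW480 cells (250/well) exposed 48 h at 37 C, 5% CO2, then Hoechst-stained 40 min. Nuclear DNA content imaged by fluorescence scanning (405 nm excitation, 500-530 nm emission); re-replication scored as increased nuclei with elevated intensity.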

[2] = target: Peptidyl-prolyl cis-trans isomerase NIMA-interacting 1 (Homo sapiens) (UniProt Q13526); test: qHTS Validation Assay to Find Inhibitors of Pin1 (AID 504536; active = well fitted inhibition curve with a large enough effect in the polarisation, with a control signal flat, not every such curve was filed as active; the % refers to the polarisation;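 also: 0% = full Pin1 enzyme wells and -100% = no-enzyme wells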); settings: Pin1 fluorescence polarization peptide binding assay; at 57.5 µM (top of the series)
Outline: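 Fluorescence polarization competition: compounds (titration) displace HiFluor-488-labeled Pin1-1b peptide from Pin1 (0.3 uM final) in pH 7.5 HEPES buffer with DTT, 10 min at room temperature; %Activity normalized to no-enzyme wells, curves fitted.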

[3] = Inducers of the Endoplasmic Reticulum Stress Response (ERSR) in human glioma: Validation (AID 504836); settings: human glioma cells, ER stress response reporter; at 38.3 µM (top of the series); also: 0% is about no effect
Outline: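 ERSR induction read as luciferase luminescence (Bright-Glo, 10 min at room temperature) in stably transfected human U87-MG glioma cells exposed to compounds for 16 h, using GRP78 as sensor.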

[4] = target: Ubiquitin carboxyl-terminal hydrolase 1 (Homo sapiens) (UniProt O94782); test: Inhibitors of USP1/UAF1: Pilot qHTS (AID 504865); settings: purified USP1/UAF1, Ub-rhodamine cleavage fluorescence; at 114 µM (top of the series);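 also: rhodamine fluorescence freed from ubiquitin-rhodamine substrate followed over time; top concentration of the series differs between compounds; % is scaled to controls: 0 for no effect and ±100 for the full control effect; nearly all actives have a fitted effect of over 35% in size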
[5] = qHTS for Inhibitors of ATXN expression: Validation of Cytotoxic Assay (AID 588349); settings: cytotoxicity counter-screen for ATXN expression inhibitors, cell viability; at 57.1 µM (top of the series); also: % is scaled to controls: 0 for no effect and ±100 for the full control effect
Outline: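 HEK293 cells treated with titrated compound for 72 hr at 37 degrees C; viability read as intracellular ATP by CellTiter Glo luminescence.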

[6] = target: Glutaminase kidney isoform, mitochondrial (Homo sapiens) (UniProt O94925); test: qHTS for Inhibitors of Glutaminase (GLS): LOPAC Validation (AID 624146);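 also: glutamate product detected by oxidase and peroxidase coupled Amplex red fluorescence gain; % is scaled to controls: 0 for no effect and ±100 for the full control effect; nearly all actives have a fitted effect of over 60% in size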
Outline: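 Assay buffer: 45 mM KH2PO4 pH 8.2, 0.02% Tween-20. hKGA acts on L-glutamine (1 mM solution added); product glutamate is reported by an oxidase/peroxidase Amplex Red coupling, with fluorescence taken at baseline and 30 min.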

[7] = target: Glucagon-like peptide 1 receptor (Homo sapiens) (UniProt P43220); test: qHTS of GLP-1 Receptor Agonists: LOPAC Validation (AID 624148); settings: GLP-1R agonist cell assay; at 46.1 µM (top of the series);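 also: luminescence from a luciferase reporter switched on by cAMP; 0% is about no effect; higher luminescence signal means agonism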
Outline: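 Agonism scored as increased luciferase luminescence driven by cAMP in HEK293 clones carrying GLP-1R. Cells settled 12 hours, received compound for 4-6 hr at 37 deg C, 5% CO2, and were read after 12 min detection reagent at RT.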

[8] = qHTS of Nrf2 Activators: LOPAC Validation (AID 624149); settings: Nrf2/ARE reporter cell assay; at 46.1 µM (top of the series); also: 0% is about no effect
Outline: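 AREc32_Fluc cells, 1000/well in OPTI-MEM with 5% FBS, grown overnight, then exposed to compounds for 24 hr at 37 deg C, 5% CO2. ARE-driven firefly luciferase read by Steady-Glo luminescence after 30 min at RT.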

[9] = HTS Assay for Allosteric Antagonists of the Human D2 Dopamine Receptor: Hit Validation in HTRF (AID 624455); settings: D2 receptor cells, HTRF cAMP read-out, antagonist mode; at 46.1 µM (top of the series);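 also: stable D1 dopamine receptor cell line scored for blocking the D1 response; % is scaled to controls: 0 for no effect and ±100 for the full control effect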
Outline: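 Hit validation in cells stably expressing the D1 dopamine receptor, run in HTRF format. Compounds were tested for their ability to inhibit the D1-mediated response.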

[10] = target: Arylsulfatase A (Homo sapiens) (UniProt P15289); test: qHTS screen for enhancers of Arylsulfatase A (ASA1): LOPAC Validation Assay (AID 720538); settings: ASA enzyme activity, LOPAC qHTS enhancer assay; activity change, positive = activation: at 57.5 µM (top of the series)
Outline: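 MLD patient fibroblasts (SV40, ASA-I179S), 1536-well; adhere 6 hrs; cpd 48h, 37 degree C, 5% CO2; pNCS 0.5mM final in lysis buffer, 14h RT; stop 1N NaOH final; fluor. Ex525/Em598.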

[11] = qHTS for compounds that reverse cellular toxicity of Amyloid beta (A-beta) peptide in yeast: LOPAC Validation Assay (AID 720559); settings: yeast expressing A-beta; at 46.1 µM (top of the series);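 also: plate controls were DMSO for no effect and equimolar ferric chloride plus clioquinol rescue for full effect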
Outline: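 Medium dispensed, compounds pinned, A-beta yeast suspension added; plates held at 30 C for 48 hr; absorbance measured at 600 nm to gauge growth; values scaled between DMSO and FeCl3/clioquinol (equimolar) controls.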

[12] = qHTS for Activators of Parkin Expression: LOPAC Validation Assay (FLuc Reporter) (AID 720573); settings: Cell line, PRKN promoter firefly luciferase reporter, vehicle wells = 0, positive control = 100%; at 46.1 µM (top of the series)
Outline: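 Cells seeded, 24 h; compounds pinned, 7-pt dose response; 24 h at 37 C/5% CO2; volume reduced; FLuc reagent 10 min RT; luminescence read. Normalization: DMSO = 0, positive control = 100%.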

[13] = target: T1, Hexokinase-4 (Homo sapiens) + Glucokinase regulatory protein (Homo sapiens) (UniProt P35557+Q14397); test: qHTS assay for inhibitors of recombinant human GCK-GKRP interaction: Diaphorase-coupled assay (AID 743205); settings: G6PDH/diaphorase resorufin fluorescence; at 57.5 µM (top of the series)
Outline: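 25 mM Hepes pH 7.6, 5 mM glucose, 0.4 mM ATP, 4 U/ml G6PDH; 10 nM each GST-GCK/FLAG-GKRP. Kinetic fluorescence read, 1/min × 30 min. Normalized: DMSO ± enzyme = max/min.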

[14] = target: T1, Hexokinase-4 (Homo sapiens) + Glucokinase regulatory protein (Homo sapiens); test: qHTS assay for inhibitors of recombinant human GCK-GKRP interaction: ADP-Glo assay (AID 743206); settings: ADP-Glo luminescence, 60 min, 0% = vehicle-only wells with enzyme present; at 76.9 µM (top of the series);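 also: plate controls were DMSO plus enzyme for no effect and no enzyme for full effect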
Outline: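 GST-GCK and FLAG-GKRP (15 nM each in the dispensed mix, with 2 uM S6P) react with 0.4 mM ATP and 5 mM glucose (final) in Hepes pH 7.6 for 60 min at room temperature. ADP is measured by ADP-Glo luminescence.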

[15] = target: T1, Hexokinase-4 (Homo sapiens) + Glucokinase regulatory protein (Homo sapiens); test: qHTS assay for inhibitors of recombinant human GCK-GKRP interaction: HTRF assay (AID 743207); settings: recombinant GCK-GKRP HTRF binding, 60 min, with sorbitol-6-phosphate; at 57.5 µM (top of the series);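 also: 0% = DMSO with GCK present and -100% = DMSO wells lacking GCK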
Outline: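 5 nM GST-GCK + 5 nM FLAG-GKRP + 2 uM S6P, pH 7.1 buffer (25 mM Hepes, 2 mM MgCl2, 25 mM KCl, 1 mM DTT, Tween/BSA); pin-transferred cpd; anti-FLAG XL665/anti-GST K; 60 min RT; HTRF.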

CN(C(=O)Cc1ccc(Cl)c(Cl)c1)[C@H]1CCCC[C@@H]1N1CCCC1
inactive: activity (re-replication induction) [1] 11.7% and 21.4% | activity, negative = inhibition [2] 4.48% and 0.809% | activation [3] -3.32% and -1.65% | activity change, negative = inhibition [4] -8.83% [middle of 5 runs] | activity change, negative = cytotoxicity [5] -29% and -28.2% | Potency [6] | activation [7] -1.23% and -1.31% | activation [8] -1.33% and -1.99% | activity, negative = inhibition [9] -9.1% and 4.59% | outcome [10] | growth rescue, positive = activation [11] -1.88% and -3.11% | activation [12] -19.6% and -10.6% | activity change, positive = activation [13] -2.24% and -2.34% | activity, positive = activation [14] -1.84% and -0.734% | activity change, negative = inhibition [15] 7.76% and -4.26%
